Values of other authors, collected in patent US20210046085A1, “TREATMENT OF ADVANCED ESTROGEN RECEPTOR POSITIVE BREAST CANCER” (Pantarhei Oncology B.V., priority 2018, published 2021).

Tested on: breast cancer
Settings: 5.0 mg estriol per day for as long as eleven months; cited from earlier work

For C[C@]12CC[C@@H]3c4ccc(O)cc4CC[C@H]3[C@@H]1C[C@@H](O)[C@@H]2O [estriol, estra-1,3,5(10)-triene-3,16α,17β-triol], which Tolerability is on record?
Its Tolerability is “well tolerated”.
